Sequences of proteins named here, by UniProt entry; tags and fusion partners are left off. Residues count along the entry.
UniProt P01375, 77-233 limits assumed: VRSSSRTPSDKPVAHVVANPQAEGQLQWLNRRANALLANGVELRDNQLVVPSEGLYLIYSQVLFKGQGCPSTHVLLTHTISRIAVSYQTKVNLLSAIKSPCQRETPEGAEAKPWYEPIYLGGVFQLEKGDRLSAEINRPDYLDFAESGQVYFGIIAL

According to patent US20100233079A1 (AbbVie / Abbott, published 2010):

The substances below were run against TNFα (TNFα/TNFSF1A) (UniProt P01375) (assay: SPR (Biacore), DVD-Ig captured, antigen in solution).
“DVD700-C (bispecific antibody; other documents disagree on this pair)” was tested, and the Kd was 0.522 nM, the koff was 0.00019 s⁻¹ and the kon was 364000 M⁻¹ s⁻¹.
For “DVD701-C (bispecific antibody; other documents disagree on this pair)”, the Kd was 0.402 nM, the koff was 0.000179 s⁻¹ and the kon was 445000 M⁻¹ s⁻¹.
In the case of “DVD699-C (bispecific antibody; other documents disagree on this pair)”, the Kd is reported as 0.526 nM, the koff is reported as 0.000195 s⁻¹ and the kon is reported as 371000 M⁻¹ s⁻¹.
